Measurements reported in patent US20250382361A1, “AFFIBODIES, HYDROGELS CONTAINING AFFIBODIES, AND USES THEREOF” (University of Oregon, priority 2024, published 2025).

Test system: C2C12 cells
Assay: C2C12 alkaline phosphatase activity assay with soluble affibodies
Type: cell-based, murine
Conditions: 20 nM BMP-2 alone, 72 hours
Experimental: After 72 h, the cells were lysed with Cellytic M (Millipore Sigma), and their ALP activity was quantified and normalized to the total amount of double stranded DNA (dsDNA) present in each well.^88 For the ALP colorimetric assay, 50 μL buffer solution consisting of equal volumes of 1.5 M 2-amino-2methyl-1-propanol solution pH 10.25, 20 mM p-nitrophenyl phosphate solution, and 10 mM MgCl2 hexahydrate solution were mixed with 50 μL of lysed cells and incubated in the dark for 20 minutes before the absorbance of the solutions was read at 405 nm (Synergy Neo2, Biotek). The colorimetric change in the solutions was converted to p-nitrophenol concentration using a calibration curve of 0-0.8 μmol mL^−1 4-nitrophenol solution (Millipore Sigma). The QuantiFluor dsDNA System (Promega) was used for dsDNA quantification.
The ALP activity in each well was normalized to the dsDNA content to account for variability in cell number between samples.
After 72 hours, cells were lysed and their ALP activity was quantified by a colorimetric change caused by the ALP-induced catalysis of p-nitro phenyl phosphate to p-nitrophenol.^88 ALP activity was normalized to the total amount of double-stranded DNA present in each cell culture. Treatment with both uncomplexed and complexed BMP-2 and affibodies was performed to compare the different states in which BMP-2 may be presented in clinical applications. […]

B1: BMP-2: Recombinant human BMP-2 (Medtronic, R&D Systems) (protein)
chain: QAKHKQRKRLKSSCKRHPLYVDFSDVGWNDWIVAPPGYHAFYCHGECPFPLADHLNSTNHAIVQTLVNSVNSKIPKACCVPTELSAISMLYLDENEKVVLKNYQDMVVEGCGCR
normalized ALP activity: 37.9 ± 12.5 nmol pNPP μg^−1 dsDNA min^−1
